Experimental data as given in patent publication US20140163083A1, “NOVEL CRYSTALLINE SALTS OF ASENAPINE” (SANDOZ AG, priority 2011, published 2014).

Conditions: water, 25° C., 48 hours suspension equilibration, filtered, HPLC

Question: With Asenapine succinate form X as the substance, how does the “aqueous solubility calculated as free base” value read?
Answer: Its value is 10.7 mg/mL.
